The IC50 is the point on the concentration scale where inhibition reaches its midpoint. Read a low IC50 as inhibition by little substance.

In the assay the target is T1, HDAC8 (Homo sapiens, UniProt Q9BY41).
T1 sequence (Q9BY41 1-377): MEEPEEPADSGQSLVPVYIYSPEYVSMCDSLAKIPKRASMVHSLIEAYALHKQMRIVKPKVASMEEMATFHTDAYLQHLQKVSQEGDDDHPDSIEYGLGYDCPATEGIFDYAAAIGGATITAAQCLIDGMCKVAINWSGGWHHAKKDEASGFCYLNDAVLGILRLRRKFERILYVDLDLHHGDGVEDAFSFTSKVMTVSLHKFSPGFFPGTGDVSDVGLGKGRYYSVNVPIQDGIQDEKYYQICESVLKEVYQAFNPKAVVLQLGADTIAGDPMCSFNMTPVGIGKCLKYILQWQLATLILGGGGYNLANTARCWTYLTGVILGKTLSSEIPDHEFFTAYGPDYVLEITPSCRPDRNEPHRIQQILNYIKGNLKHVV
The experiment in a line: biochemical.

Turning to `O=C(CCCCCCC(=O)Nc1ccccc1)NO` [SAHA, suberanilohydroxamic acid], the IC50 was about 46 µM.

For the origin of these results see patent publication US10953011B2, “Methods of treating virally associated cancers with histone deacetylase inhibitors” (priority 2019, dated 2021).
